According to PMC6373530 (Pharmaceutical Research, 2019):

Molecular target: trastuzumab (huIgG1, anti-HER2 therapeutic antibody) (human)
Test: SPR; IgG capturing set-up, Biacore T200: HER2 extracellular domain amine-coupled on a CM5 chip, HER2-specific IgG captured (about 1000 RU), soluble dimeric FcγR flowed at 600, 200 and 66.7 nM, PBS-P+ pH 7.4; qualitative, with Interaction Map analysis
Conditions: both partners purified

B1: soluble poFcγRIIb (dimeric IgG Fc fusion of the extracellular domain) (Fc fusion)
chain: VLPKAEVKLQPAWINVLQEDSVTLTCQGDHDPGNTTTQWFHNGNFTWTENQPSFSFKARRASSGHYRCQTAYSSLSDPVHLDVISDWLLLQTSSLVFQEGEPILLRCHSWRNKPLHKVAFFQNGKSKKFSYVDSNFSIPQANQSHSGEYHCTGFIGKMSYSSQSVNITVQGSSLNNLL
modifications: biotin on the Avi-tag (BirA) in the FcγR capturing set-up only
fold affinity against huFcγRIIb: 3 fold
